# Results published in patent publication US9498495B2, “Methods for in vitro differentiation of TH-17+ cells” (New York University, priority 2008, dated 2016).
# Tests used:
# [1] = test system: Naive cord blood CD4+ T cells; assay: Th17 cell polarization of naive cord blood CD4+ T cells in serum-free media (intracellular and surface staining: IL-17, IL-22, FOXP3, CCR6); type: cell-based, human
# Procedure: Blood samples were obtained from the New York Blood Center. Mononuclear cells were prepared from buffy coats of healthy adult donors or from cord blood on FicollPAQUE gradients. CD4^+ T cells were isolated on an autoMACS Pro using Miltenyi bead depletion of CD14^+ and CD25^+ cells followed by positive selection of CD4^+ cells. Cord blood CD4^+ T cells were >97% pure and 100% CD45RA^+ and were used as such for initial transduction experiments. Adult CD4^+ T cell subsets and naive cord blood CD4^+ T cells were further purified respectively as CD3^+CD4^+CD25^−CD45RO^−/+ and CD3^+CD4^+CD25^−HLA-DR^−CD45RA^+ by cell sorting on a FACSAria.
# Cells were cultivated in either RPMI1640 (Invitrogen) supplemented with 10% fetal bovine serum (Hyclone), penicillin-streptomycin, 2 mM glutamine, 10 mM HEPES, 1 mM pyruvate and 0.1 mM non-essential amino acids or serum-free XVIVO-20 (Lonza) supplemented with penicillin-streptomycin in a 37° C. 5% CO2 incubator. CD4^+ T cells were stimulated by addition of anti-mouse IgG magnetic beads (Pierce) previously coated with purified anti-CD3 and anti-CD28 at final concentrations of 1 bead/cell and 1 μg/ml of each antibody. For transduction experiments, cells were seeded at a concentration of 10^6 cells/ml in 24 well plates with anti-CD3/CD28 coated beads, 10 μg/ml polybrene and 10 U/ml IL-2 at day 0. Lentiviral supernatants were added at an MOI ranging from 1 to 10. Cells were washed at day 1 and split as needed in the presence of IL-2. For the shRNA experiment, puromycin was added at day 2 at 2 μg/ml. For polarization experiments, cells were seeded at a concentration of 5×10^5 to 10^6 cells/ml in U-bottom 96 well plates with anti-CD3/CD28 coated beads. IL-2 at 10 U/ml was either added at day 0 or day 3. Media was replaced at day 3 and cells were split in the presence of IL-2. For long-term experiments, cells were split as needed. In some cases, 10 ng/ml IL-1β (eBioscience), 10 ng/ml IL-6 (eBioscience), 10 ng/ml IL-21 (Cell Sciences), 10 ng/ml IL-23 (eBioscience), various concentrations of TGF-β1 (PeproTech), neutralizing soluble IL-21R (R&D) and neutralizing antibodies against IL-2, IL-4, IL-6, IFNγ or TGF-β (1 μg/ml except noted otherwise; see Table 1 for details) were added at day 0 and maintained throughout the experiment. Cells were harvested at day 6 for intracellular staining and real-time PCR analysis except where specified otherwise.
# For intracellular cytokine staining, cells were incubated for 5 hours with 50 ng/ml PMA (Sigma), 500 ng/ml Ionomycin (Sigma), and GolgiStop (BD). Surface staining was performed by incubation with the corresponding fluorescently labeled antibodies for 15 min on ice. […] Flow cytometric measures were performed on a LSR II (BD Biosciences) instrument and analyzed using FlowJo software (Tree Star Inc.). […]
# [2] = test system: Cord blood CD4+ T cells transduced with RORγT; assay: IL-17 and FOXP3 expression following RORγT transduction of cord blood CD4+ T cells (intracellular staining); type: cell-based, human
Substance,"IL-17 expression ([1]; in the presence of TGF-β, IL-1β and IL-23, day 6)","effect on the suppression of IL-17 production induced by TGF-β ([2]; RORγT-transduced cells, with TGF-β)","increase of the proportion of IL-17-producing cells after forced expression of RORγT ([2]; cytokine 10 ng/ml, day 6)","suppression of TGF-β-induced FOXP3 expression ([1]; added to TGF-β, day 6)","induction of IL-17 ([1]; both IL-1β and TGF-β included, day 6)",induction of IL-17 ([1]; combined with TGF-β alone)
"IL-2: cytokine, IL-2 at 10 U/ml",increased,,,,,
"IL-21: cytokine, 10 ng/ml IL-21 (Cell Sciences)",,partially relieved,about two-fold,able to inhibit,"active, albeit not as strongly as IL-23",failed to induce
